Experimental data as given in US20160228567A1, “Hypoxia-Targeted Delivery System for Pharmaceutical Agents” (NORTHEASTERN UNIVERSITY, priority 2013, published 2016).

System: B16F10 tumors
Conditions: mouse, in vivo, iv

Row | accumulation in tumors (tumor sections) | Substance
1 | detected in tumor sections | PEG-Azo-Rhodamine-PEI-DOPE [PARPD]
2 | not found to accumulate in tumors | PEG-Rhodamine-PEI-DOPE [PRPD]
